This data set can be described thus: Metabolic stability in mouse liver microsomes assessed as clearance at 1 uM measured upto 30 mins in the presence of NADPH-generating system by LC-MS analysis. Format: ADME, Microsome. Particulars: 0.5 h. For orientation: Liver microsomes are vesicles of endoplasmic reticulum, rich in cytochrome P450 enzymes.

For `O=C(Nc1cccc2[nH]ccc12)c1cc2ccc(Br)cc2s1`, the CLH is 304 µL/min/mg.

As to `NCC(c1csc2ccccc12)N1CCc2c(-c3cccnc3)csc2C1=O` (racemic), the CLH worked out at 185 µL/min/mg. The value for `CCCCCCC(CN)N1CCc2c(-c3cccnc3)csc2C1=O` (racemic) was 114 µL/min/mg.

The record behind these values is ChEMBL document CHEMBL5244276, “New Series of Potent Allosteric Inhibitors of Deoxyhypusine Synthase” (ACS Med Chem Lett, 2020).
